Laboratory results from IntAct's records for PubMed 21346195.

B1: Shugoshin 1 (Homo sapiens), Q5FBB7 (parent)
chain: MAKERCLKKSFQDSLEDIKKRMKEKRNKNLAEIGKRRSFIAAPCQIITNTSTLLKNYQDNNKMLVLALENEKSKVKEAQDIILQLRKECYYLTCQLYALKGKLTSQQTVEPAQNQEICSSGMDPNSDDSSRNLFVKDLPQIPLEETELPGQGESFQIEDQIPTIPQDTLGVDFDSGEAKSTDNVLPRTVSVRSSLKKHCNSICQFDSLDDFETSHLAGKSFEFERVGFLDPLVNMHIPENVQHNACQWSKDQVNLSPKLIQPGTFTKTKEDILESKSEQTKSKQRDTQERKREEKRKANRRKSKRMSKYKENKSENKKTVPQKKMHKSVSSNDAYNFNLEEGVHLTPFRQKVSNDSNREENNESEVSLCESSGSGDDSDDLYLPTCKYIQNPTSNSDRPVTRPLAKRALKYTDEKETEGSKPTKTPTTTPPETQQSPHLSLKDITNVSLYPVVKIRRLSLSPKKNKASPAVALPKRRCTASVNYKEPTLASKLRRGDPFTDLCFLNSPIFKQKKDLRRSKKRALEVSPAKEAIFILYYVREFVSRFPDCRKCKLETHICLR

Variants of: B1
Settings: with cbx5_human CBX5

**Q.** Which “effect of a mutation on the interaction” value does the source give for MAKERCLKKSFQDSLEDIKKRMKEKRNKNLAEIGKRRSFIAAPCQIITNTSTLLKNYQDNNKMLVLALENEKSKVKEAQDIILQLRKECYYLTCQLYALKGKLTSQQTVEPAQNQEICSSGMDPNSDDSSRNLFVKDLPQIPLEETELPGQGESFQIEDQIPTIPQDTLGVDFDSGEAKSTDNVLPRTVSVRSSLKKHCNSICQFDSLDDFETSHLAGKSFEFERVGFLDPLVNMHIPENVQHNACQWSKDQVNLSPKLIQPGTFTKTKEDILESKSEQTKSKQRDTQERKREEKRKANRRKSKRMSKYKENKSENKKTVPQKKMHKSVSSNDAYNFNLEEGVHLTPFRQKVSNDSNREENNESEVSLCESSGSGDDSDDLYLPTCKYIQNPTSNSDRPVTRPLAKRALKYTDEKETEGSKPTKTPTTTPPETQQSPHLSLKDITNVSLYAVAKARRLSLSPKKNKASPAVALPKRRCTASVNYKEPTLASKLRRGDPFTDLCFLNSPIFKQKKDLRRSKKRALEVSPAKEAIFILYYVREFVSRFPDCRKCKLETHICLR [P451A;V453A;I455A] here?
**A.** disrupting interaction strength

**Q.** Which “effect of a mutation on the interaction” value does the source give for MAKERCLKKSFQDSLEDIKKRMKEKRNKNLAEIGKRRSFIAAPCQIITNTSTLLKNYQDNNKMLVLALENEKSKVKEAQDIILQLRKECYYLTCQLYALKGKLTSQQTVEPAQNQEICSSGMDPNSDDSSRNLFVKDLPQIPLEETELPGQGESFQIEDQIPTIPQDTLGVDFDSGEAKSTDNVLPRTVSVRSSLKKHCNSICQFDSLDDFETSHLAGKSFEFERVGFLDPLVNMHIPENVQHNACQWSKDQVNLSPKLIQPGTFTKTKEDILESKSEQTKSKQRDTQERKREEKRKANRRKSKRMSKYKENKSENKKTVPQKKMHKSVSSNDAYNFNLEEGVHLTPFRQKVSNDSNREENNESEVSLCESSGSGDDSDDLYLPTCKYIQNPTSNSDRPVTRPLAKRALKYTDEKETEGSKPTKTPTTTPPETQQSPHLSLKDITNVSLYPVVKIRRLSLSPKKNKASAAAAAPKRRCTASVNYKEPTLASKLRRGDPFTDLCFLNSPIFKQKKDLRRSKKRALEVSPAKEAIFILYYVREFVSRFPDCRKCKLETHICLR [P469A;V471A;L473A] here?
**A.** with no effect
